This assay addresses T1, DNA topoisomerase 1 (Homo sapiens) (UniProt P11387).
T1 sequence (whole entry): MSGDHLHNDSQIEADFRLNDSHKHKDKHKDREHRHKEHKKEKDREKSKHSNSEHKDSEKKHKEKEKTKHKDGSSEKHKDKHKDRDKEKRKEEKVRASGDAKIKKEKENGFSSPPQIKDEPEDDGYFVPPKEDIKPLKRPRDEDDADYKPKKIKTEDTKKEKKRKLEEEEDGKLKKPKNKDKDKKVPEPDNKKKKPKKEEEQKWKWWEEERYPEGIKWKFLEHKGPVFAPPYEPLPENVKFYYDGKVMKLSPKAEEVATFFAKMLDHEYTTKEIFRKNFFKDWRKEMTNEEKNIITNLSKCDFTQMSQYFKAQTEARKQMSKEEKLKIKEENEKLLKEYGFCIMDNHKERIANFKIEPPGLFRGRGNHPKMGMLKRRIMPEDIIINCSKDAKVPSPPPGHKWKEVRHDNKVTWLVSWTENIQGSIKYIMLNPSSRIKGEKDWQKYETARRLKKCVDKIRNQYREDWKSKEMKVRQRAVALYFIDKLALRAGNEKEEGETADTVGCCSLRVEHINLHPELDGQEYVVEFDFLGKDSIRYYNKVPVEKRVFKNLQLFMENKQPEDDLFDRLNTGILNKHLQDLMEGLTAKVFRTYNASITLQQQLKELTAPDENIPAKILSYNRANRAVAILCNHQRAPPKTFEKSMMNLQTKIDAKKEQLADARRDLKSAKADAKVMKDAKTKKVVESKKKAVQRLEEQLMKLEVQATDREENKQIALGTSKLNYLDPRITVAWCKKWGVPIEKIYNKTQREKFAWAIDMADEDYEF
The experiment in a line: Relative effective concentration to cleave plasmid DNA with human topoisomerase I; compared to camptothecin=1.

These results are taken from ChEMBL document CHEMBL1138027, “Dimethoxybenzo[i]phenanthridine-12-carboxylic acid derivatives and 6H-dibenzo[c,h][2,6]naphthyridin-5-ones with potent topoisomerase I-targeting activity and cytotoxicity” (Bioorg Med Chem Lett, 2004).

Structures are written as SMILES.

On to `COc1cc2c(=O)n(CCN(C)C)c3c4cc5c(cc4ncc3c2cc1OC)OCO5`, for which the REC worked out at 2.5.
